The target in the experiment is Histamine H3 receptor (Homo sapiens, UniProt Q9Y5N1). Put plainly: Binding affinity to human H3R.

By UniProt entry, the sequences of proteins in these tests, tags left out. Where a name states a change or a piece, a line headed by the entry shows the natural chain unless it says otherwise.
UniProt Q9Y5N1: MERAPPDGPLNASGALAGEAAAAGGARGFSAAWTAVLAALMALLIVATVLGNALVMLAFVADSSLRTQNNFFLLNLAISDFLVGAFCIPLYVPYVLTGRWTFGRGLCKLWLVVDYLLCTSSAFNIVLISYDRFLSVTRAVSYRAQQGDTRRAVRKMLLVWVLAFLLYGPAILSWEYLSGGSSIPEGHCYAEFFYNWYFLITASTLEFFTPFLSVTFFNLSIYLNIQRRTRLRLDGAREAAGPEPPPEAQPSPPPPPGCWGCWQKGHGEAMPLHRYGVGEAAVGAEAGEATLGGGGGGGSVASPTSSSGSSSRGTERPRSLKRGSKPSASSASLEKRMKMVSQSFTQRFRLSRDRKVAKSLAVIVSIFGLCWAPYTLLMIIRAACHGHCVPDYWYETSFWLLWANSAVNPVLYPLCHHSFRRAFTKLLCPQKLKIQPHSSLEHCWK

For orientation: Ki means the dissociation constant of the complex between target and ligand, obtained from inhibition or displacement. Higher therefore signals lower affinity. For the compound `O=C(c1ccc(OCCCc2cnc[nH]2)cc1)C1CC1` [CIPROXIFAN], the Ki fell in the range of 46 to 180 nM.

Source of the values: ChEMBL document CHEMBL4196042, “Novel indanone derivatives as MAO B/H3R dual-targeting ligands for treatment of Parkinson's disease” (Eur J Med Chem, 2018).
